Reference: ChEMBL document CHEMBL1153969, “N-Hydroxy-(4-oxime)-cinnamide: a versatile scaffold for the synthesis of novel histone deacetylase [correction of deacetilase] (HDAC) inhibitors” (Bioorg Med Chem Lett, 2009)

The chains behind the UniProt entries cited, without tags or fusion partners.
UniProt Q92769, whole entry: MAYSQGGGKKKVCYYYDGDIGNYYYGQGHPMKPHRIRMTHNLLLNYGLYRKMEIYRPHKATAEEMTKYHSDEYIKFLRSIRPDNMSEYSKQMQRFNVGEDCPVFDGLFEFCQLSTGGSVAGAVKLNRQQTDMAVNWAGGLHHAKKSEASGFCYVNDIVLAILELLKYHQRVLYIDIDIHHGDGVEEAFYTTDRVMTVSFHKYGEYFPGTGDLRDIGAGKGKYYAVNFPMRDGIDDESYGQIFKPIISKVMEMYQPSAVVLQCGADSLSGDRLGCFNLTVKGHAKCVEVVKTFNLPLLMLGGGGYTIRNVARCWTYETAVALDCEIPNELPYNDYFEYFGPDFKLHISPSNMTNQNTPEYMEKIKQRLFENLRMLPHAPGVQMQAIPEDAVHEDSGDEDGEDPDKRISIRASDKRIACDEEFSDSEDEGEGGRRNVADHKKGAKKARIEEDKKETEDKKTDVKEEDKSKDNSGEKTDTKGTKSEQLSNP

Biological target: Histone deacetylase 2 (Homo sapiens, UniProt Q92769)
Assay: Inhibition of human HDAC2

O=C(/C=C/c1ccc(-c2cc(CN3CCOCC3)on2)cc1)NO
IC50: 13.2 µM
